According to ChEMBL document CHEMBL5512636, “Novel 6-hydroxybenzothiazol-2-carboxamides as potent and selective monoamine oxidase B inhibitors endowed with neuroprotective activity” (Eur J Med Chem, 2024):
Activity calls are given as the source filed them. The calls are words filed in the database; no cut-off is given here.

Protein sequences, listed by entry. Tags and fused reporters are not part of them.
UniProt P10636, whole entry: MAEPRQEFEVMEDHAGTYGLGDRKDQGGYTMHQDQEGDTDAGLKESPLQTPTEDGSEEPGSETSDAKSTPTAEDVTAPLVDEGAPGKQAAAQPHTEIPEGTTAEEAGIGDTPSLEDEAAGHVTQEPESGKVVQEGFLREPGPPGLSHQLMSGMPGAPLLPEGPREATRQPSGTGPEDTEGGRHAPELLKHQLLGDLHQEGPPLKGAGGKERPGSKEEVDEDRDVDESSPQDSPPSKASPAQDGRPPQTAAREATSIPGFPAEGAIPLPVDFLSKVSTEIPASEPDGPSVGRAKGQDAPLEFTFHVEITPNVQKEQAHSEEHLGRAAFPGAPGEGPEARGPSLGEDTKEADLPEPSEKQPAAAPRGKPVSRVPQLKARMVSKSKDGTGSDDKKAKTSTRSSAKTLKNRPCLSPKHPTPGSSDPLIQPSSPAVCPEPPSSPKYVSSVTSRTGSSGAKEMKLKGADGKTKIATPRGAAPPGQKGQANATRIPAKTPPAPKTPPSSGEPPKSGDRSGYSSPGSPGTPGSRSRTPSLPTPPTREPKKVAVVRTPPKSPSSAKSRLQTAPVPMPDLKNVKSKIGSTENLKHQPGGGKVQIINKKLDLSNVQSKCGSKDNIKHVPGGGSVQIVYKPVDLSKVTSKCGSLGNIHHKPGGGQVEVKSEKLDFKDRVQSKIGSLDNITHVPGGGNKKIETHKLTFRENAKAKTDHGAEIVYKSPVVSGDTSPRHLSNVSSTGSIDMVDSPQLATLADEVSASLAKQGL

Columns and labels:
[1] = molecular target: T1, PHD finger protein 6 (Homo sapiens) (UniProt Q8IWS0); assay: Inhibition of PHF6 (unknown origin) aggregation at 10 uM incubated for 4 hrs by ThT fluorescence based R3 aggregation assay relative to control
T1 sequence (whole entry): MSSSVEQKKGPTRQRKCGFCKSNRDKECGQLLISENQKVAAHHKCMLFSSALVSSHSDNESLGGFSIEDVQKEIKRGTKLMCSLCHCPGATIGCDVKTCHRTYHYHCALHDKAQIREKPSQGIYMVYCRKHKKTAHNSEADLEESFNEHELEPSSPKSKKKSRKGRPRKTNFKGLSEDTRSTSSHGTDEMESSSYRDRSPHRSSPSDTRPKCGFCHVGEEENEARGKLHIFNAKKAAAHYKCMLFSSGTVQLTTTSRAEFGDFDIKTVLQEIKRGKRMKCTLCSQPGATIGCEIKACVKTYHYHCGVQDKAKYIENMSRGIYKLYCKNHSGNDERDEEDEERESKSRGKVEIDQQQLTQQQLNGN

[2] = molecular target: T1, PHD finger protein 6 (Homo sapiens); assay: Inhibition of PHF6 (unknown origin) aggregation at 25 uM incubated for 3 hrs by ThT fluorescence based assay relative to control
[3] = molecular target: Microtubule-associated protein tau (Homo sapiens, UniProt P10636); assay: Inhibition of GFP/RFP-fused tau oligomerization in human SH-SY5Y cells at 10 uM incubated for 2 hrs by FRET assay; format: cell-based

| SMILES | inhibition [1] [%] | inhibition [2] [%] | inhibition [3] |
| --- | --- | --- | --- |
| O=C(NCc1ccc([N+](=O)[O-])cc1)c1nc2ccc(O)cc2s1 | > 50 |  |  |
| O=C(NC1CCCCC1)c1nc2ccc(O)cc2s1 | > 50 | > 50 |  |
| CCCCCCNC(=O)c1nc2ccc(O)cc2s1 | > 50 |  |  |
| COc1ccc(CNC(=O)c2nc3ccc(O)cc3s2)cc1OC | > 50 |  |  |
| O=C(NCCc1cc2ccccc2[nH]1)c1nc2ccc(O)cc2s1 | > 50 | > 50 | Active |
| O=C(NCc1cccs1)c1nc2ccc(O)cc2s1 | > 50 |  |  |
| O=c1c(O)c(-c2ccc(O)c(O)c2)oc2cc(O)cc(O)c12 | > 50 |  |  |
| COc1ccc(CNC(=O)c2nc3ccc(O)cc3s2)cc1F | > 50 |  |  |
| COc1ccc(CNC(=O)c2nc3ccc(O)cc3s2)c(OC)c1 | > 50 |  |  |
| O=C(NCCc1ccccc1)c1nc2ccc(O)cc2s1 | > 50 | > 50 | Active |
| O=C(NCc1cccc(F)c1F)c1nc2ccc(O)cc2s1 | > 50 | > 50 |  |
| O=C(NCc1ccc(F)c(F)c1)c1nc2ccc(O)cc2s1 | > 50 | > 50 |  |
| Cc1cc(C)cc(CNC(=O)c2nc3ccc(O)cc3s2)c1 | > 50 |  |  |
